Assay [1] addresses T1, NE reuptake into rat brain synaptosomes (Rattus norvegicus, UniProt Q63380).
T1 construct: A crude synaptosomal (P2) fraction was prepared; tissue Harlan Sprague-Dawley (animals); host or cells: rat hippocampus, crude synaptosomal (P2) fraction
It is filed as biochemical, rat (male Sprague-Dawley), hippocampal tissue. The note with it: Ki (NE)/Ki (compound or drug); Prozac to Serzone derived from literature Ki.

Protein sequences, listed by entry. Tags and fused reporters are not part of them. Residues count along the entry.
UniProt Q63380, 1-617: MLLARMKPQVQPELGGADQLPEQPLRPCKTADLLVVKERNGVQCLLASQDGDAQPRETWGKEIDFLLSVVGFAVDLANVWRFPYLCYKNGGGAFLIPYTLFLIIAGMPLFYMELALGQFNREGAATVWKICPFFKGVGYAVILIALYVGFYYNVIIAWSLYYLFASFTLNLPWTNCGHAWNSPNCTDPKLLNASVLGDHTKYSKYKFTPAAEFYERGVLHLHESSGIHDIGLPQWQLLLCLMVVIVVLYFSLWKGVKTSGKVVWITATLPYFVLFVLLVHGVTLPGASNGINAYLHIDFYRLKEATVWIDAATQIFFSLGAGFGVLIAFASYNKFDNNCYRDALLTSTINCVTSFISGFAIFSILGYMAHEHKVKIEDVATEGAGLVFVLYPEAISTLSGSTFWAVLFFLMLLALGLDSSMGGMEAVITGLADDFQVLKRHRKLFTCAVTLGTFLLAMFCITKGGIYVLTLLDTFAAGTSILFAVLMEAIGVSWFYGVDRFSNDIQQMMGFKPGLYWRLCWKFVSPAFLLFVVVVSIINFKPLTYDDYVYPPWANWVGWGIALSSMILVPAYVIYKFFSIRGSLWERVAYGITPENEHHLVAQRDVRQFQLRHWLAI
UniProt P23977, whole entry: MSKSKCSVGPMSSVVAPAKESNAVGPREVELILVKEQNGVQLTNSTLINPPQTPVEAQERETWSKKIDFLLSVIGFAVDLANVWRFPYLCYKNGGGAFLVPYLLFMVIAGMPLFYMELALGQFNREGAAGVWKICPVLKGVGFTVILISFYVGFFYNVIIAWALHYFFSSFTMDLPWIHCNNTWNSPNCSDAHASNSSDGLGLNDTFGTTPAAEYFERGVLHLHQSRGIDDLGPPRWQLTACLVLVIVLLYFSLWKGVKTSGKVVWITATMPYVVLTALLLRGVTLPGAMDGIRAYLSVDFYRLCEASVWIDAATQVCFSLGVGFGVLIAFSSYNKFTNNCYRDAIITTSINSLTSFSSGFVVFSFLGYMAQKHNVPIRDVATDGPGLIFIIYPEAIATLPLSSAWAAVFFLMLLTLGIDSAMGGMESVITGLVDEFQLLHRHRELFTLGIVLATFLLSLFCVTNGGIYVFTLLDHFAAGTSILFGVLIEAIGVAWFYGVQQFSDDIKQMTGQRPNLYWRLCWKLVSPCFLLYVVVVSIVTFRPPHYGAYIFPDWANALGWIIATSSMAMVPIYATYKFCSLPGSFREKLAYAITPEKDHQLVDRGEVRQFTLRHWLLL
UniProt P31652, whole entry: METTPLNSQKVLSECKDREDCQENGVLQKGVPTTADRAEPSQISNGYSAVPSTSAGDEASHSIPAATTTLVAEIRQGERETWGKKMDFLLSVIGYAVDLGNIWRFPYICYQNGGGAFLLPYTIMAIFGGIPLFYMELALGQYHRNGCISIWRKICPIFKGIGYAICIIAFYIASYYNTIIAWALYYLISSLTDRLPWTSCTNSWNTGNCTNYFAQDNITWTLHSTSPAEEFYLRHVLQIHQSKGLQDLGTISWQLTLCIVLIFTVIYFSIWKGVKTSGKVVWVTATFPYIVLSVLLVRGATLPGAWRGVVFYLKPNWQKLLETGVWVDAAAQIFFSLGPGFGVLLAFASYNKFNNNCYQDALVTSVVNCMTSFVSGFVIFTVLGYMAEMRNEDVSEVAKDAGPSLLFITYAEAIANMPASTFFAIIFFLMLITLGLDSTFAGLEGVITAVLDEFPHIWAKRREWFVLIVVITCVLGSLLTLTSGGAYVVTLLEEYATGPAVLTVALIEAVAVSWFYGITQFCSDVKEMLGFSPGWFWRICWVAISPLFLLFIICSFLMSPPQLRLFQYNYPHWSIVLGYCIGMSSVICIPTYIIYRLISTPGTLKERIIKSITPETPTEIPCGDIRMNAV

The target in assay [2] is T2, DA reuptake into rat brain synaptosomes (Rattus norvegicus, UniProt P23977).
T2 construct: A crude synaptosomal (P2) fraction was prepared; tissue Harlan Sprague-Dawley (animals); host or cells: rat striatum, crude synaptosomal (P2) fraction
In words: DA reuptake inhibition in rat brain synaptosomes. It is filed as biochemical, rat (male Sprague-Dawley), striatal tissue.

The target of assay [3] is T3, 5-HT reuptake into rat brain synaptosomes (Rattus norvegicus, UniProt P31652).
T3 construct: A crude synaptosomal (P2) fraction was prepared; tissue Harlan Sprague-Dawley (animals); host or cells: rat cerebral cortex, crude synaptosomal (P2) fraction
Briefly: 5-HT reuptake inhibition in rat brain synaptosomes. The note with it: Ki (5-HT)/Ki (compound or drug); Prozac to Serzone derived from literature Ki. It is filed as biochemical, rat (male Sprague-Dawley), cortical tissue.

Broadly, the Ki is a measure of affinity in units of concentration, obtained from inhibition or displacement. As to `COc1ccc(C(CN(C)C)C2(O)CCCCC2)cc1` (stereo not shown) [Effexor ®, reference compound], the “NE (Rat) Reuptake Inhibition Potency” value in assay [1] is 0.86. In addition, in assay [2] (rat brain synaptosomes), the affinity corresponds to a Ki of 360 ± 53.2 nM.

Turning to `Fc1ccc([C@@H]2CCNC[C@H]2COc2ccc3c(c2)OCO3)cc1` [Paxil ®, reference compound], the “5-HT (Rat) Reuptake Inhibition Potency” value in assay [3] was determined as 25.3.

As for `CNCC[C@@H](Oc1ccccc1C)c1ccccc1` [Tomoxetine, reference compound], the “DA (Rat) Reuptake Inhibition Potency” value in assay [2] (Ki (DA)/Ki (compound or drug), Prozac to Serzone derived from literature Ki) stood at 0.05.

(Values after patent US6069177A, “3-Hydroxy-propanamine derived neuronal reuptake inhibitors” (priority 1997, dated 2000).)
